Tested on: A549 epithelial cells
Test: LDH release
Assay type: cell-based, human

Apolipoprotein A-1: obtained by delipidating HDL with 2:1 chloroform:methanol
effect on LDH release induced by 50 μg/ml LL-37 (A549, 10% FBS, 24 h, mean of two separate experiments): unable to block
effect on induction of cell death (LDH release) by LL-37 (A549, absence of serum, data not shown): but not apolipoprotein A-1, was able to reduce
